Experimental data as given in PubChem BioAssay (EPA / NIEHS).
Only a part is listed here, and it is no random draw. Records with an inconclusive call do not appear. Calls of active or inactive are those of the source. How the source made its calls, unless noted: active means hit-call score of the fitted dose curve at least 0.9, where 1 is the maximum; inconclusive means response in the unintended direction; inactive means score below 0.9.

Amino acid sequences for entries named in this document (tags omitted). A change or cut given only in a name is not applied to a line headed by its entry.
UniProt P19793: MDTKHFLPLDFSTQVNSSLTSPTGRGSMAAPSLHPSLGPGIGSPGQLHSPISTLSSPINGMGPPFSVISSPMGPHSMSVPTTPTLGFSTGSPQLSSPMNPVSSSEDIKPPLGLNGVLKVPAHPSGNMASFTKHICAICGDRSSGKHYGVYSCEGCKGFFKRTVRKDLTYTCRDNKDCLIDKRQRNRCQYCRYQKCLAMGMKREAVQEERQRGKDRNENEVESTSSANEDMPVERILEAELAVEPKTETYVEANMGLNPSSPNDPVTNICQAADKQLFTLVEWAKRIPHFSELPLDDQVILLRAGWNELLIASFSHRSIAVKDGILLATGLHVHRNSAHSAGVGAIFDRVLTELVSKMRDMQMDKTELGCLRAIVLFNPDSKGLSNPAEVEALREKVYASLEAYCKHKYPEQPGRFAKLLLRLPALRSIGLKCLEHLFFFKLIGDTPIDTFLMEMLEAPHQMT
UniProt P37231: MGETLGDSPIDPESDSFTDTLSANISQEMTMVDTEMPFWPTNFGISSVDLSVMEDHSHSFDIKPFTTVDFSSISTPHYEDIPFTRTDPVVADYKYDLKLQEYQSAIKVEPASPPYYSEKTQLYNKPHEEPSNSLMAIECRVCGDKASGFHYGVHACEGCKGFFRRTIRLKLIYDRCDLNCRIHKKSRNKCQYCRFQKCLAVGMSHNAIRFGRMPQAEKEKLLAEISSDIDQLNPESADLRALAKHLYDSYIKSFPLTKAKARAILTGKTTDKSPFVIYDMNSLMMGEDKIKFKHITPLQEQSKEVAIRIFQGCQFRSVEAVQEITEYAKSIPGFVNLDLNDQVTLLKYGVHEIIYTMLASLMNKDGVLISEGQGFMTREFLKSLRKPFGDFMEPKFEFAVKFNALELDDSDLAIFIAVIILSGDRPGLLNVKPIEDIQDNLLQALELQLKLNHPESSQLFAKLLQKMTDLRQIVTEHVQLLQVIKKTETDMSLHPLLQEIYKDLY
UniProt P03372, whole entry, looked up: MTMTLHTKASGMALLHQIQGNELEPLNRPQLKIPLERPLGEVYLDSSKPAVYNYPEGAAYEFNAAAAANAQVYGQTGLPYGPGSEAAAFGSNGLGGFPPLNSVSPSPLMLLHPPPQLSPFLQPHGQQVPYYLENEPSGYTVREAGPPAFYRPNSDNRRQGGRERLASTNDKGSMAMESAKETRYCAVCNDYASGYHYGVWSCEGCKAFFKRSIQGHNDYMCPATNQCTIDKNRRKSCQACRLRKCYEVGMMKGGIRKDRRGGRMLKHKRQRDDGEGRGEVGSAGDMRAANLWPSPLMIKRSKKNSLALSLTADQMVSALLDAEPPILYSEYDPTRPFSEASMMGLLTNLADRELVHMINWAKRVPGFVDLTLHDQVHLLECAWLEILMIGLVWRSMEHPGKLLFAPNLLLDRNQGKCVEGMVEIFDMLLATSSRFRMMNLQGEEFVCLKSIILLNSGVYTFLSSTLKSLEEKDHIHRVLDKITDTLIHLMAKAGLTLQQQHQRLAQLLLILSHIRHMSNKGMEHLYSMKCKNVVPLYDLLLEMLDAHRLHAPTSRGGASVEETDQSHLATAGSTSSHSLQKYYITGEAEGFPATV
UniProt Q96RI1: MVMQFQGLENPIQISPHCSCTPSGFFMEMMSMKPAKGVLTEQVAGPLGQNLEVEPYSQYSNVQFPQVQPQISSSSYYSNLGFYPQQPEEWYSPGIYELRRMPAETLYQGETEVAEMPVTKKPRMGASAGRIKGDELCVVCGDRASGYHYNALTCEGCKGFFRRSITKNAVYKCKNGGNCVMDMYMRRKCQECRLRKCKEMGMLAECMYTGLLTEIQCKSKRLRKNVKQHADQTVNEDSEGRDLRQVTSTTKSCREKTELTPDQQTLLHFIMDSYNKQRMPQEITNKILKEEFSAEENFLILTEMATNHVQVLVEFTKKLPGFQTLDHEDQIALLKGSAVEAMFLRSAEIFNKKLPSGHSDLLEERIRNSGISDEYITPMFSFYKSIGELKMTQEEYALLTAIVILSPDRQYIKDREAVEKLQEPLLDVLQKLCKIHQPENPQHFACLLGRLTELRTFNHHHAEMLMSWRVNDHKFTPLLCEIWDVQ

What was measured:
[1] = biological target: Retinoic acid receptor RXR-alpha (Homo sapiens) (UniProt P19793); assay: OT_NURR1_NURR1RXRa_0480: Odyssey Thera (OT) 8-hour HEK293T Protein Complementation Assay for Nurr1/retinoid X receptor (RXR) (AID 2283385)
Procedure, shortened: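 Compounds are applied to HEK293T cells carrying Nurr1 and RXRα linked to reporter fragments. After 8 h, fluorescence intensity reports heterodimer formation, with DMSO as baseline.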

[2] = biological target: Retinoic acid receptor RXR-alpha (Homo sapiens) (UniProt P19793); assay: OT_NURR1_NURR1RXRa_1440: Odyssey Thera (OT) 24-hour HEK293T Protein Complementation Assay for Nurr1/retinoid X receptor (RXR) (AID 2283386)
Procedure, shortened: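 Measured as fluorescence from a reconstituted split reporter, this 24 h HEK293T complementation assay scores compound-induced gain of Nurr1/RXRα association relative to DMSO.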

[3] = biological target: Peroxisome proliferator-activated receptor gamma (Homo sapiens) (UniProt P37231); assay: OT_PPARg_PPARgSRC1_0480: Odyssey Thera (OT) 8-hour Protein-Complementation Assay for Peroxisome Proliferator-activated Receptor Gamma / SRC-1 Co-activator (AID 2283387);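 further: nuclear to cytoplasmic split Venus YFP fluorescence ratio reporting PPARg SRC-1 interaction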
Procedure, shortened: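 Protein-fragment complementation of split Venus YFP reports PPARg/SRC-1 interaction in HEK293T (transfected 48 h before treatment), exposed 8 h. Readout: N/C fluorescence ratio at 488 nm from imaging, Draq5 for segmentation, positive fit relative to DMSO.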

[4] = biological target: Peroxisome proliferator-activated receptor gamma (Homo sapiens) (UniProt P37231); assay: OT_PPARg_PPARgSRC1_1440: Odyssey Thera (OT) 24-hour Protein-Complementation Assay for Peroxisome Proliferator-activated Receptor Gamma/ SRC-1 Co-activator (AID 2283388);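 further: nuclear to cytoplasmic ratio of reconstituted Venus YFP fluorescence in fixed imaged cells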
Procedure, shortened: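 Readout: nuclear-to-cytoplasmic 488 nm fluorescence ratio, ≥350 cells per image, 8 images per well, after 24 h compound exposure of HEK293T expressing PPARg/SRC-1 split-YFP fusions. Activity fitted in positive direction against DMSO.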

[5] = CEETOX_H295R_11DCORT: CeeTox H295R High-throughput Steroidogenesis Assay for 11-Deoxycortisol (11DCORT) (AID 2283432; active means hit-call score of the fitted dose curve at least 0.9, where 1 is the maximum; inactive means score below 0.9); conditions: actives raise or lower the signal
Procedure, shortened: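 Human adrenal H295R cells were prestimulated with 10 uM forskolin for 48 h, then exposed to test chemical (0.1% DMSO final) for 48 h. Medium 11-deoxycortisol was quantified by MTBE extraction and HPLC-MS/MS; bidirectional fitting relative to DMSO.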

[6] = CEETOX_H295R_OHPREG: CeeTox H295R High-throughput Steroidogenesis Assay for OH-Pregnenolone (OHPREG) (AID 2283434; active means hit-call score of the fitted dose curve at least 0.9, where 1 is the maximum; inactive means score below 0.9); conditions: actives raise or lower the signal
Procedure, shortened: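 Hormone levels in spent medium were measured by tandem mass spectrometry following liquid-liquid extraction. Cells (H295R) had been forskolin-stimulated (10 uM, 48 h) before a 48 h chemical exposure at 0.1% DMSO, with activity fitted in both directions against DMSO.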

[7] = CEETOX_H295R_OHPROG: CeeTox H295R High-throughput Steroidogenesis Assay for OH-Progesterone (OHPROG) (AID 2283435; active means hit-call score of the fitted dose curve at least 0.9, where 1 is the maximum; inactive means score below 0.9); conditions: actives raise or lower the signal
Procedure, shortened: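 Secreted 17alpha-hydroxyprogesterone is read by tandem MS from media of forskolin-primed H295R cells dosed with chemical for 48 h. Activity is fitted in both directions against DMSO baseline; cytotoxic concentrations are re-tested diluted.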

[8] = biological target: Estrogen receptor (Homo sapiens) (UniProt P03372); assay: OT_ERa_GFPERaERE_0120: Odyssey Thera (OT) 2-hour HeLa Transcription Induction Assay for Estrogen Receptor (AID 2283382)
Procedure, shortened: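 Measures ESR1 pathway reporter gain-of-signal in HeLa cells after a 2-hour treatment, detected as fluorescent protein induction by microscopy, DMSO as baseline.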

[9] = biological target: Bile acid receptor (Homo sapiens) (UniProt Q96RI1); assay: OT_FXR_FXRSRC1_0480: Odyssey Thera (OT) 8-hour HEK293T Protein-Complementation Assay for Farnesoid X receptor/SRC-1 Co-activator (AID 2283383)
Procedure, shortened: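 Co-activator recruitment to FXR was measured in living HEK293T cells, where interaction of the two fused partners restored an active fluorescent reporter. Signal gain after 8 h treatment was referenced to DMSO.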

[10] = biological target: Bile acid receptor (Homo sapiens) (UniProt Q96RI1); assay: OT_FXR_FXRSRC1_1440: Odyssey Thera (OT) 24-hour HEK293T Protein-Complementation Assay for Farnesoid X receptor/SRC-1 Co-activator (AID 2283384)
Description: OT_FXR_FXRSRC1_1440 is a cell-based assay that uses HEK293T, a human kidney cell line, with measurements taken at 24 hours after chemical dosing in a 384-well plate.OT_FXR_FXRSRC1_1440 is one of one assay component(s) measured or calculated from the OT_FXR_FXRSRC1_1440 assay. It is designed to make measurements of protein fragment complementation, a form of binding reporter, as detected with fluorescence intensity signals by Protein-fragment Complementation technology.Data from the assay component OT_FXR_FXRSRC1_1440 was analyzed into 1 assay endpoint. This assay endpoint, OT_FXR_FXRSRC1_1440, was analyzed in the positive analysis fitting direction relative to DMSO as the negative control and baseline of activity. Using a type of binding reporter, measures of receptor for gain-of-signal activity can be used to understand the binding at the pathway-level as they relate to the gene NR1H4. Furthermore, this assay endpoint can be referred to as a primary readout, because the performed assay has only produced 1 assay endpoint. […]
Protein-fragment complementation assay, or PCA, is a method for the identification and quantification of protein-protein interactions. […] Interaction between the bait and the prey proteins brings the fragments of the reporter protein in close proximity to allow them to form a functional reporter protein whose activity can be measured.

Measured: outcome

O=C1C2CC=CCC2C(=O)N1SC(Cl)(Cl)C(Cl)Cl (stereo not drawn)
inactive: [1] | [2] | [3] | [4] | [5] | [6] | [7]

CN(C(=O)Cc1cccc2occc12)[C@H]1CC[C@@]2(CCCO2)C[C@@H]1N1CCCC1
inactive: [8] | [9] | [10] | [1] | [2] | [3] | [4]

CC(C)CCCCCCCOP(OCCCCCCCC(C)C)Oc1ccccc1
inactive: [8] | [1] | [3] | [4]

ClP(Cl)c1ccccc1
inactive: [8] | [1] | [3] | [4]

CC(C)OP(=S)(OC(C)C)SCCNS(=O)(=O)c1ccccc1
inactive: [3] | [4]

O=[P+](Oc1ccccc1)Oc1ccccc1
inactive: [2] | [3] | [4]

Cc1cc([N+](=O)[O-])cc([N+](=O)[O-])c1O
inactive: [9] | [10] | [1] | [2] | [3] | [4]
